Test results taken from patent US12171806B2, “Therapeutic regimens and methods for lowering blood glucose and/or body weight using GLP-1R and GCGR balanced agonists” (priority 2021, dated 2024).

Assay: Phase 1 MAD study of ALT-801: adverse events (TEAEs), safety overview
[1] = severity not given, only four group pairs printed, dose group of each cell unclear

With CC[C@H](C)[C@H](NC(=O)[C@H](Cc1ccccc1)NC(=O)[C@H](CCC(=O)O)NC(=O)[C@@H]1CCCCNC(=O)CC[C@H](NC(=O)[C@H](CC(=O)O)NC(=O)[C@H](CC(C)C)NC(=O)[C@H](Cc2ccc(O)cc2)NC(=O)[C@H](CCCCN)NC(=O)[C@H](CO)NC(=O)[C@H](Cc2ccc(O)cc2)NC(=O)[C@H](CC(=O)O)NC(=O)[C@H](CO)NC(=O)[C@@H](NC(=O)[C@H](Cc2ccccc2)NC(=O)[C@@H](NC(=O)CNC(=O)[C@H](CCC(N)=O)NC(=O)C(C)(C)NC(=O)[C@@H](N)Cc2c[nH]cn2)[C@@H](C)O)[C@@H](C)O)C(=O)N[C@@H](CCCCNC(=O)[C@H]2O[C@@H](OCCCCCCCCCCCCCCCCCC(=O)O)[C@H](O)[C@@H](O)[C@@H]2O)C(=O)N[C@@H](C)C(=O)N[C@@H](C)C(=O)N1)C(=O)N[C@@H](CCC(N)=O)C(=O)N[C@@H](Cc1c[nH]c2ccccc12)C(=O)N[C@@H](CC(C)C)C(=O)N[C@@H](CC(C)C)C(=O)N[C@@H](CCC(N)=O)C(=O)N[C@H](C(N)=O)[C@@H](C)O [ALT-801, pemvidutide] the “TEAE Dermatitis contact, maximum severity Moderate, subjects %” value (Overall ALT-801 (N = 27)) was “(0.0%)”, the “TEAE Dermatitis contact, maximum severity Moderate, subjects n” value (Overall ALT-801 (N = 27)) was 0 and the “TEAE Dermatitis contact, maximum severity PLT, subjects %” value (Overall ALT-801 (N = 27)) was “(0.0%)”. The “TEAE Dermatitis contact, maximum severity PLT, subjects n” value (Overall ALT-801 (N = 27)) was 0, the “TEAE Dermatitis contact, maximum severity Severe, subjects %” value (Overall ALT-801 (N = 27)) was “(0.0%)” and the “TEAE Dermatitis contact, maximum severity Severe, subjects n” value (Overall ALT-801 (N = 27)) was 0. The “TEAE Eczema, maximum severity Mild, subjects %” value (Overall ALT-801 (N = 27)) was “(11.1%)”, the “TEAE Eczema, maximum severity Mild, subjects n” value (Overall ALT-801 (N = 27)) was 3 and the “TEAE Eczema, maximum severity Moderate, subjects %” value (Overall ALT-801 (N = 27)) was “(0.0%)”. For the same molecule, the “TEAE Eczema, maximum severity Moderate, subjects n” value (Overall ALT-801 (N = 27)) was 0, the “TEAE Eczema, maximum severity PLT, subjects %” value (Overall ALT-801 (N = 27)) was “(0.0%)” and the “TEAE Eczema, maximum severity PLT, subjects n” value (Overall ALT-801 (N = 27)) was 0. For the same molecule, the “TEAE Eczema, maximum severity Severe, subjects %” value (Overall ALT-801 (N = 27)) was “(0.0%)”, the “TEAE Eczema, maximum severity Severe, subjects n” value (Overall ALT-801 (N = 27)) was 0 and the “TEAE Hot flush, maximum severity Mild, subjects %” value (Overall ALT-801 (N = 27)) was “(3.7%)”. For the same molecule, the “TEAE Hot flush, maximum severity Mild, subjects n” value (Overall ALT-801 (N = 27)) was 1, the “TEAE Hot flush, maximum severity Moderate, subjects %” value (Overall ALT-801 (N = 27)) was “(0.0%)” and the “TEAE Hot flush, maximum severity Moderate, subjects n” value (Overall ALT-801 (N = 27)) was 0. The “TEAE Hot flush, maximum severity PLT, subjects %” value (Overall ALT-801 (N = 27)) was “(0.0%)”, the “TEAE Hot flush, maximum severity PLT, subjects n” value (Overall ALT-801 (N = 27)) was 0 and the “TEAE Hot flush, maximum severity Severe, subjects %” value (Overall ALT-801 (N = 27)) was “(0.0%)”. The “TEAE Hot flush, maximum severity Severe, subjects n” value (Overall ALT-801 (N = 27)) was 0, the “TEAE Menorrhagia, maximum severity PLT, subjects %” value (Overall ALT-801 (N = 27)) was “(0.0%)” and the “TEAE Menorrhagia, maximum severity PLT, subjects n” value (Overall ALT-801 (N = 27)) was 0. For the same molecule, the “TEAE Oropharyngeal pain, maximum severity Mild, subjects %” value (Overall ALT-801 (N = 27)) was “(3.7%)”, the “TEAE Oropharyngeal pain, maximum severity Mild, subjects n” value (Overall ALT-801 (N = 27)) was 1 and the “TEAE Oropharyngeal pain, maximum severity Moderate, subjects %” value (Overall ALT-801 (N = 27)) was “(0.0%)”. For the same molecule, the “TEAE Oropharyngeal pain, maximum severity Moderate, subjects n” value (Overall ALT-801 (N = 27)) was 0, the “TEAE Oropharyngeal pain, maximum severity PLT, subjects %” value (Overall ALT-801 (N = 27)) was “(0.0%)” and the “TEAE Oropharyngeal pain, maximum severity PLT, subjects n” value (Overall ALT-801 (N = 27)) was 0. The “TEAE Oropharyngeal pain, maximum severity Severe, subjects %” value (Overall ALT-801 (N = 27)) was “(0.0%)”, the “TEAE Oropharyngeal pain, maximum severity Severe, subjects n” value (Overall ALT-801 (N = 27)) was 0 and the “TEAE Papule, maximum severity Mild, subjects %” value (Overall ALT-801 (N = 27)) was “(3.7%)”. The “TEAE Papule, maximum severity Mild, subjects n” value (Overall ALT-801 (N = 27)) was 1, the “TEAE Papule, maximum severity Moderate, subjects %” value (Overall ALT-801 (N = 27)) was “(0.0%)” and the “TEAE Papule, maximum severity Moderate, subjects n” value (Overall ALT-801 (N = 27)) was 0. For the same molecule, the “TEAE Papule, maximum severity PLT, subjects %” value (Overall ALT-801 (N = 27)) was “(0.0%)”, the “TEAE Papule, maximum severity PLT, subjects n” value (Overall ALT-801 (N = 27)) was 0 and the “TEAE Papule, maximum severity Severe, subjects %” value (Overall ALT-801 (N = 27)) was “(0.0%)”. The “TEAE Papule, maximum severity Severe, subjects n” value (Overall ALT-801 (N = 27)) was 0, the “TEAE Pruritus, maximum severity Mild, subjects %” value (Overall ALT-801 (N = 27)) was “(3.7%)” and the “TEAE Pruritus, maximum severity Mild, subjects n” value (Overall ALT-801 (N = 27)) was 1. For the same molecule, the “TEAE Pruritus, maximum severity Moderate, subjects %” value (Overall ALT-801 (N = 27)) was “(0.0%)”, the “TEAE Pruritus, maximum severity Moderate, subjects n” value (Overall ALT-801 (N = 27)) was 0 and the “TEAE Pruritus, maximum severity PLT, subjects %” value (Overall ALT-801 (N = 27)) was “(0.0%)”. The “TEAE Pruritus, maximum severity PLT, subjects n” value (Overall ALT-801 (N = 27)) was 0, the “TEAE Pruritus, maximum severity Severe, subjects %” value (Overall ALT-801 (N = 27)) was “(0.0%)” and the “TEAE Pruritus, maximum severity Severe, subjects n” value (Overall ALT-801 (N = 27)) was 0. The “TEAE Rash, maximum severity Mild, subjects %” value (Overall ALT-801 (N = 27)) was “(7.4%)”, the “TEAE Rash, maximum severity Mild, subjects n” value (Overall ALT-801 (N = 27)) was 2 and the “TEAE Rash, maximum severity Moderate, subjects %” value (Overall ALT-801 (N = 27)) was “(0.0%)”. For the same molecule, the “TEAE Rash, maximum severity Moderate, subjects n” value (Overall ALT-801 (N = 27)) was 0, the “TEAE Rash, maximum severity PLT, subjects %” value (Overall ALT-801 (N = 27)) was “(0.0%)” and the “TEAE Rash, maximum severity PLT, subjects n” value (Overall ALT-801 (N = 27)) was 0. The “TEAE Rash, maximum severity Severe, subjects %” value (Overall ALT-801 (N = 27)) was “(0.0%)”, the “TEAE Rash, maximum severity Severe, subjects n” value (Overall ALT-801 (N = 27)) was 0 and the “TEAE Respiratory, thoracic and mediastinal disorders, maximum severity Mild, subjects %” value (Overall ALT-801 (N = 27)) was “(7.4%)”. For the same molecule, the “TEAE Respiratory, thoracic and mediastinal disorders, maximum severity Mild, subjects n” value (Overall ALT-801 (N = 27)) was 2, the “TEAE Respiratory, thoracic and mediastinal disorders, maximum severity Moderate, subjects %” value (Overall ALT-801 (N = 27)) was “(0.0%)” and the “TEAE Respiratory, thoracic and mediastinal disorders, maximum severity Moderate, subjects n” value (Overall ALT-801 (N = 27)) was 0. For the same molecule, the “TEAE Respiratory, thoracic and mediastinal disorders, maximum severity PLT, subjects %” value (Overall ALT-801 (N = 27)) was “(0.0%)”, the “TEAE Respiratory, thoracic and mediastinal disorders, maximum severity PLT, subjects n” value (Overall ALT-801 (N = 27)) was 0 and the “TEAE Respiratory, thoracic and mediastinal disorders, maximum severity Severe, subjects %” value (Overall ALT-801 (N = 27)) was “(0.0%)”. For the same molecule, the “TEAE Respiratory, thoracic and mediastinal disorders, maximum severity Severe, subjects n” value (Overall ALT-801 (N = 27)) was 0, the “TEAE Skin and subcutaneous tissue disorders, maximum severity Mild, subjects %” value (Overall ALT-801 (N = 27)) was “(33.3%)” and the “TEAE Skin and subcutaneous tissue disorders, maximum severity Mild, subjects n” value (Overall ALT-801 (N = 27)) was 9. For the same molecule, the “TEAE Skin and subcutaneous tissue disorders, maximum severity Moderate, subjects %” value (Overall ALT-801 (N = 27)) was “(0.0%)”, the “TEAE Skin and subcutaneous tissue disorders, maximum severity Moderate, subjects n” value (Overall ALT-801 (N = 27)) was 0 and the “TEAE Skin and subcutaneous tissue disorders, maximum severity PLT, subjects %” value (Overall ALT-801 (N = 27)) was “(0.0%)”. For the same molecule, the “TEAE Skin and subcutaneous tissue disorders, maximum severity PLT, subjects n” value (Overall ALT-801 (N = 27)) was 0, the “TEAE Skin and subcutaneous tissue disorders, maximum severity Severe, subjects %” value (Overall ALT-801 (N = 27)) was “(0.0%)” and the “TEAE Skin and subcutaneous tissue disorders, maximum severity Severe, subjects n” value (Overall ALT-801 (N = 27)) was 0. For the same molecule, the “TEAE Skin lesion, maximum severity Mild, subjects %” value (Overall ALT-801 (N = 27)) was “(3.7%)”, the “TEAE Skin lesion, maximum severity Mild, subjects n” value (Overall ALT-801 (N = 27)) was 1 and the “TEAE Skin lesion, maximum severity Moderate, subjects %” value (Overall ALT-801 (N = 27)) was “(0.0%)”. The “TEAE Skin lesion, maximum severity Moderate, subjects n” value (Overall ALT-801 (N = 27)) was 0, the “TEAE Skin lesion, maximum severity PLT, subjects %” value (Overall ALT-801 (N = 27)) was “(0.0%)” and the “TEAE Skin lesion, maximum severity PLT, subjects n” value (Overall ALT-801 (N = 27)) was 0. The “TEAE Skin lesion, maximum severity Severe, subjects %” value (Overall ALT-801 (N = 27)) was “(0.0%)”, the “TEAE Skin lesion, maximum severity Severe, subjects n” value (Overall ALT-801 (N = 27)) was 0 and the “TEAE Vascular disorders, maximum severity Mild, subjects %” value (Overall ALT-801 (N = 27)) was “(3.7%)”. For the same molecule, the “TEAE Vascular disorders, maximum severity Mild, subjects n” value (Overall ALT-801 (N = 27)) was 1, the “TEAE Vascular disorders, maximum severity Moderate, subjects %” value (Overall ALT-801 (N = 27)) was “(0.0%)” and the “TEAE Vascular disorders, maximum severity Moderate, subjects n” value (Overall ALT-801 (N = 27)) was 0. For the same molecule, the “TEAE Vascular disorders, maximum severity PLT, subjects %” value (Overall ALT-801 (N = 27)) was “(0.0%)”, the “TEAE Vascular disorders, maximum severity PLT, subjects n” value (Overall ALT-801 (N = 27)) was 0 and the “TEAE Vascular disorders, maximum severity Severe, subjects %” value (Overall ALT-801 (N = 27)) was “(0.0%)”. The “TEAE Vascular disorders, maximum severity Severe, subjects n” value (Overall ALT-801 (N = 27)) was 0, the “TEAE Hyperglycemia, subjects %” value [1] was “(0%)” and the “TEAE Hyperglycemia, subjects n” value [1] was 0.
